## scFv variants of Ab-14 (heavy chain) against a SARS-CoV-2 spike peptide

Target: peptide PDVDLGDISGINAS, taken from heptad repeat 2 (HR2) of SARS-CoV-2 spike.

Parent scFv Ab-14: VH joined to VL by three GGGGS repeats. Changes lie in the heavy chain CDRs alone.
VH: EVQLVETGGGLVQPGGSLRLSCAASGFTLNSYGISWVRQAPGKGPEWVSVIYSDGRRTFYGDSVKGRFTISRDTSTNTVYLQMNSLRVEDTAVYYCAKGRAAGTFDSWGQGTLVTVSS
VL: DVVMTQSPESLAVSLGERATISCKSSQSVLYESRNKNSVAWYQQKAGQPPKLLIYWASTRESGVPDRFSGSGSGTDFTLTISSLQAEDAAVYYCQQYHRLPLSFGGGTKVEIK

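Phage display of a naive human antibody library on the peptide gave the parent. AAYL49 was designed without a model: most single CDR substitutions and a random sample of double and triple ones. AlphaSeq pools MATa yeast showing the antibodies with MATalpha yeast showing the peptide. After mating in shaken culture at 30 °C for 16 h, diploids were selected and their barcode pairs sequenced. The ratio of observed to expected reads was calibrated, replicate by replicate, on BCL2-family standards whose Kd was known from biolayer interferometry. Each pool was mated in three replicate cultures.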

Each variant's VH is given in full. Every variant below is changed at S31 of the VH (sequential numbering). Numbers give log10(Kd / nM), so 0 is 1 nM and 3 is 1 µM. Smaller is tighter. Averages over replicates are reported, and they cover detected replicates only. "nd" marks a missing value. The strain was present, yet no cells mated with the target were sequenced in any replicate, which points to weak or no binding. Nonspecific signal, from three strains lacking the peptide, appeared in 15% of pairings of library AAYL49, centred on 4.06 (5% of these signals below 2.83); values are not corrected for it. For reference, the parent read 0.65 as the reference entry and 4.11 (one replicate of three) as a member of this library.

With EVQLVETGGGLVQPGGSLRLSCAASGFTLNAYGISWVRQAPGKGPEWVSMIYSDGRRTFYGDSVKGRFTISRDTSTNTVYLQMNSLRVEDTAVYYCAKGGAAGTFDSWGQGTLVTVSS the result was nd (0 of 3 replicates).
With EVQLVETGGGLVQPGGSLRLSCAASGFTCNWYGISWVRQAPGKGPEWVSVIYSDGRRTLYGDSVKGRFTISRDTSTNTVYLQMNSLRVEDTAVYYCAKGRAAGTFDSWGQGTLVTVSS the result was nd (0 of 3 replicates).
With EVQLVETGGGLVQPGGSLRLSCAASGFTLNIYGISWVRQAPGKGPEWVSVIYSDGRLTFYGDSVKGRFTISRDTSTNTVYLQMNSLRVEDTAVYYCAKGRAAGTFDIWGQGTLVTVSS the result was nd (0 of 3 replicates).
With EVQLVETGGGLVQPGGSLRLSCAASGFIINKYGISWVRQAPGKGPEWVSVIYSDGRRTFYGDSVKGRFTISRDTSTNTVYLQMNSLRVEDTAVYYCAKGRAAGTFDSWGQGTLVTVSS the result was 2.30 (3 of 3 replicates).
With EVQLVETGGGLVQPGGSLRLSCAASGFTMNQYGISWVRQAPGKGPEWVSVIYSDGRRTFYGDSVKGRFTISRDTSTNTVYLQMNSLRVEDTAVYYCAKGRAAGTFDSWGQGTLVTVSS the result was 1.58 (3 of 3 replicates).
With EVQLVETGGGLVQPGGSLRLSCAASGFTLNTYWISWVRQAPGKGPEWVSVIYSDGRRTFYNDSVKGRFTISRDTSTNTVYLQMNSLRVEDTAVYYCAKGRAAGTFDSWGQGTLVTVSS the result was nd (0 of 3 replicates).
With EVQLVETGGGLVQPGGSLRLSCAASGFTLNMYGISWVRQAPGKGPEWVSVIYSDGRRTFYGDSVKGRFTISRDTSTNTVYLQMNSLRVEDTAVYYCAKGRANITFDSWGQGTLVTVSS the result was 4.52 (2 of 3 replicates).
With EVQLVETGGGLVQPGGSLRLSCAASGFTLNYYGISWVRQAPGKGPEWVSVIYSDGRRTFYGDSVKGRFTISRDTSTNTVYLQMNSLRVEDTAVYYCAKPRAAGYFDSWGQGTLVTVSS the result was nd (0 of 3 replicates).
With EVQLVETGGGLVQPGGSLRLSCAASGFTLNMYGISWVRQAPGKGPEWVSVIYSDGRRTFYGDSVKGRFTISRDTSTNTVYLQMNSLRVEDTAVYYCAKGRARGTFNSWGQGTLVTVSS the result was 2.14 (3 of 3 replicates).
With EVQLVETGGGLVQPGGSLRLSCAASGFTLNTYNISWVRQAPGKGPEWVSVIYSDGRRTFYGDSVKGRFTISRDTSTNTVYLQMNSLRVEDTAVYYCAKGRAAGTFDSWGQGTLVTVSS the result was nd (0 of 3 replicates).
With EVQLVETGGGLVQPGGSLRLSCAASGFTLNWYGISWVRQAPGKGPEWVSVIYSDGRRTFYGDSVKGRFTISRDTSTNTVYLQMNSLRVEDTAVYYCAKGRAAGTFMSWGQGTLVTVSS the result was nd (0 of 3 replicates).
With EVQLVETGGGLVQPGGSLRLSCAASGFTLNYYGISWVRQAPGKGPEWVSVIYSDGRRTFYGDSVKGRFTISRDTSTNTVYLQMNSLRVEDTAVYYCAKGRAAGTFDSWGQGTLVTVSS the result was 1.45 (3 of 3 replicates).
With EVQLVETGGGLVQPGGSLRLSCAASGFTLNMYGISWVRQAPGKGPEWVSVIYSDGRRTTYGDSVKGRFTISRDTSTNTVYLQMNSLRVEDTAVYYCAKGRAAGTFDSWGQGTLVTVSS the result was 2.95 (3 of 3 replicates).
With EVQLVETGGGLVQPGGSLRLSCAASGFTLNKYGISWVRQAPGKGPEWVSVIYSDGRRRFNGDSVKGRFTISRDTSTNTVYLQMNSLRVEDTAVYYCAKGRAAGTFDSWGQGTLVTVSS the result was 4.82 (1 of 3 replicates).
With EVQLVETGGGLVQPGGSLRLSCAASGFTLNYYGISWVRQAPGKGPEWVSVIYSDGRRTFYGDSVKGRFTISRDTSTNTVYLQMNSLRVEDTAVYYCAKGRAAGSFLSWGQGTLVTVSS the result was nd (0 of 3 replicates).
With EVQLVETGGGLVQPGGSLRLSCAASGFTLNGYGISWVRQAPGKGPEWVSVIYSDGRRTFYGDSVKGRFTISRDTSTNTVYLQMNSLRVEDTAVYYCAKGCAAGTFDSWGQGTLVTVSS the result was nd (0 of 3 replicates).
With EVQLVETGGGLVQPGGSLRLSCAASGFTLNEYGISWVRQAPGKGPEWVSVKYMDGRRTFYGDSVKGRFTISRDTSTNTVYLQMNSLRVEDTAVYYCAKGRAAGTFDSWGQGTLVTVSS the result was 5.40 (3 of 3 replicates).
With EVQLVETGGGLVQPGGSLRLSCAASGCTLNVYGISWVRQAPGKGPEWVSVIYSDGRRTFYGDQVKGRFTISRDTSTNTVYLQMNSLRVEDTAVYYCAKGRAAGTFDSWGQGTLVTVSS the result was nd (0 of 3 replicates).
With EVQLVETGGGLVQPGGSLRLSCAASGFTINEYGISWVRQAPGKGPEWVSVIYSDGRRTFYGDSVKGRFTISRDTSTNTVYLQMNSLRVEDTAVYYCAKGRAAGTFDSWGQGTLVTVSS the result was 0.54 (3 of 3 replicates).
With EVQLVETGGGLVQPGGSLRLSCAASGMTLNHYGISWVRQAPGKGPEWVSGIYSDGRRTFYGDSVKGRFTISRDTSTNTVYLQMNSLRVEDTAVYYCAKGRAAGTFDSWGQGTLVTVSS the result was nd (0 of 3 replicates).
With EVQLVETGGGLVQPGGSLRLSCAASGFTLNAYGISWVRQAPGKGPEWVSVIYSDGRRTFYGDSVKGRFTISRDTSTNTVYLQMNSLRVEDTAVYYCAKGRAVGTPDSWGQGTLVTVSS the result was 1.19 (3 of 3 replicates).
With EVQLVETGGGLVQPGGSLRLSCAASGFTLNCYGISWVRQAPGKGPEWVSVYYSDGRRTRYGDSVKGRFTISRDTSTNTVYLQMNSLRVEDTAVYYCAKGRAAGTFDSWGQGTLVTVSS the result was nd (0 of 3 replicates).
With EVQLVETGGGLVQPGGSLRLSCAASGFTLNMNGIFWVRQAPGKGPEWVSVIYSDGRRTFYGDSVKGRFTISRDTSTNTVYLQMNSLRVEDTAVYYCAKGRAAGTFDSWGQGTLVTVSS the result was nd (0 of 3 replicates).

Excerpt, the first 4 entries:

With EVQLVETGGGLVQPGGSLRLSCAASGFTLNAYGISWVRQAPGKGPEWVSMIYSDGRRTFYGDSVKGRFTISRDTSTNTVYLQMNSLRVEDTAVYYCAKGGAAGTFDSWGQGTLVTVSS the result was nd (0 of 3 replicates).
With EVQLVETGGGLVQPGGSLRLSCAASGFTCNWYGISWVRQAPGKGPEWVSVIYSDGRRTLYGDSVKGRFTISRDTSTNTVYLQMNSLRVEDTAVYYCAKGRAAGTFDSWGQGTLVTVSS the result was nd (0 of 3 replicates).
With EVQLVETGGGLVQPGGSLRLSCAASGFTLNIYGISWVRQAPGKGPEWVSVIYSDGRLTFYGDSVKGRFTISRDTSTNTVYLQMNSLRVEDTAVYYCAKGRAAGTFDIWGQGTLVTVSS the result was nd (0 of 3 replicates).
With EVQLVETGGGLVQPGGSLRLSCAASGFIINKYGISWVRQAPGKGPEWVSVIYSDGRRTFYGDSVKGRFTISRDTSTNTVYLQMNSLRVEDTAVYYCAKGRAAGTFDSWGQGTLVTVSS the result was 2.30 (3 of 3 replicates).

Data: MIT Lincoln Laboratory AlphaSeq set, Engelhart et al. 2022, doi:10.1038/s41597-022-01779-4, as distributed in FLAb.